Assay results taken from paper PMC12136037, “Type II kinase inhibitors that target Parkinson’s disease–associated LRRK2” (Science Advances, 2025).

Protein sequences, listed by entry. Tags and fused reporters are not part of them. Residues count along the entry.
UniProt Q5S007, 1327-2527 limits assumed: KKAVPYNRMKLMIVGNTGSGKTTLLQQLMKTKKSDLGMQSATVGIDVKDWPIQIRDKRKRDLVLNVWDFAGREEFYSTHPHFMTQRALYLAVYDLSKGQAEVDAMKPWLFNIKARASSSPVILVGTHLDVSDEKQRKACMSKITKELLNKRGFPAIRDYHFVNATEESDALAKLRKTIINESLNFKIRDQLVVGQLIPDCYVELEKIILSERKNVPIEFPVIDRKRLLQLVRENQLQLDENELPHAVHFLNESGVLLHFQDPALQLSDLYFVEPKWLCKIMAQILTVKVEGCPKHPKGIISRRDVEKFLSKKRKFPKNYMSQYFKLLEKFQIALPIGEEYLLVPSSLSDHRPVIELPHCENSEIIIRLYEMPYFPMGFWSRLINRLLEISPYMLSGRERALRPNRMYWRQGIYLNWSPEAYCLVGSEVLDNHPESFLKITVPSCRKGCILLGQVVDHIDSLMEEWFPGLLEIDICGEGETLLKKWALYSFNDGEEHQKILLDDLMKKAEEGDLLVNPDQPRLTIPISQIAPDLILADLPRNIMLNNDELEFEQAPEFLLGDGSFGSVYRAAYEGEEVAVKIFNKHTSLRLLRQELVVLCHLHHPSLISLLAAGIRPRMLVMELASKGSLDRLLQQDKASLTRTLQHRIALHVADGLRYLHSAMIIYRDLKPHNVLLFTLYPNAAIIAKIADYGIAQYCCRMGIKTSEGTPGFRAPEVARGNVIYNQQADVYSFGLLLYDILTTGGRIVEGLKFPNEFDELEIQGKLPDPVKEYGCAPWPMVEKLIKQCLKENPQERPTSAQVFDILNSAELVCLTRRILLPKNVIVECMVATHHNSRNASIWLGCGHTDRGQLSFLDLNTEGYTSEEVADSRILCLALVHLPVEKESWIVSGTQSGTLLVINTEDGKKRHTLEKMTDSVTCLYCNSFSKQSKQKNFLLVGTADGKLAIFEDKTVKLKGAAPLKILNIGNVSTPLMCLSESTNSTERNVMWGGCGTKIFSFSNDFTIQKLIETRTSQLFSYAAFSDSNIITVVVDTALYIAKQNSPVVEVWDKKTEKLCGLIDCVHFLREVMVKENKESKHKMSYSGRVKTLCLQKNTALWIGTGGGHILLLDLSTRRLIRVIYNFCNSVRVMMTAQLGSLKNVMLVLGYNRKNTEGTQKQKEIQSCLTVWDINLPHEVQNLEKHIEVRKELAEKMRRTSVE
UniProt Q5S007, 1847-2527 limits assumed: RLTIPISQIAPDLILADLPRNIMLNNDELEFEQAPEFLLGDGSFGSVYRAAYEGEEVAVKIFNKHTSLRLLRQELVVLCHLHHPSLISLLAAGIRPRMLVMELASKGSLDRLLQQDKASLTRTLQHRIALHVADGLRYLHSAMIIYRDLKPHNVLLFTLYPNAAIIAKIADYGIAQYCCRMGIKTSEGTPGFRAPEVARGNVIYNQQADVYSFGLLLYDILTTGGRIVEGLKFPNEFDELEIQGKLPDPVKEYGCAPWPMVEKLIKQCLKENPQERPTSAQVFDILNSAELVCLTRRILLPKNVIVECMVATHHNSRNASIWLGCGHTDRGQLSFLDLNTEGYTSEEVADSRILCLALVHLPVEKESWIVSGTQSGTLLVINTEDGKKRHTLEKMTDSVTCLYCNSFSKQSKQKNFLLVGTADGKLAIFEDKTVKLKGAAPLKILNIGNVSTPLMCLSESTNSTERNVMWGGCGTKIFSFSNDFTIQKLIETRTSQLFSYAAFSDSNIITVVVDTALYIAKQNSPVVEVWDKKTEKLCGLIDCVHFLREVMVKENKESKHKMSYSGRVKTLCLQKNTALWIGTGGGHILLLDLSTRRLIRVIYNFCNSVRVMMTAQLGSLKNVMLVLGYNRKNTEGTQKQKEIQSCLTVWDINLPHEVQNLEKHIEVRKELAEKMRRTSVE

Experiments:
[1] = target: LRRK2^RCKW (Homo sapiens, UniProt Q5S007); experiment: Biochemical LRRK2 activity assay (PhosphoSense, AssayQuant SOX peptide AQT0615); details: Table S2, bound printed in μM under head IC50 [nM]
[2] = target: LRRK2^KW (Homo sapiens, UniProt Q5S007); experiment: DSF thermal stabilization of LRRK2^KW; format: binding; details: 10 μM inhibitor

IC50 [1]: > 15 µM | ∆Tm (K) [2]: 1.0 K
Structure (SMILES): O=C(Nc1ccc(F)cc1)C1(C(=O)Nc2ccc3cn[nH]c3c2)CC1
